# Membrane permeability of cyclic peptides

Data: CycPeptMPDB; original report Kelly et al. 2021, doi:10.1021/jacs.0c06115.

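Conditions beyond the assay type are not listed; see the original paper. The list need not hold all peptides of the study. Entries at the database's floor value (log10 P of -10) are not listed.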

PAMPA is the parallel artificial membrane permeability assay, which has no cells and reads passive diffusion. P is given in units of 10^-6 cm/s (from log10 values with two decimals); larger means faster passage.

PAMPA (10^-6 cm/s) | structure (SMILES)
1.3 | CC(=O)N1CCC[C@@H]1C(=O)N(C)[C@@H](CC(C)C)C(=O)N[C@@H]1C(=O)N[C@H](CC(C)C)C(=O)N[C@H](CC(C)C)C(=O)N(C)[C@H](CC(C)C)C(=O)N[C@@H](C)C(=O)N[C@H](CC(C)C)C(=O)N2CCC[C@H]2C(=O)O[C@@H]1C
5 | CC(=O)N1CCC[C@H]1C(=O)N(C)[C@H](CC(C)C)C(=O)N[C@@H]1C(=O)N(C)[C@@H](CC(C)C)C(=O)N[C@@H](CC(C)C)C(=O)N(C)[C@@H](CC(C)C)C(=O)N(C)[C@@H](C)C(=O)N[C@@H](CC(C)C)C(=O)N2CCC[C@@H]2C(=O)O[C@@H]1C
0.32 | CC(=O)N1CCC[C@H]1C(=O)N(C)[C@H](CC(C)C)C(=O)N[C@@H]1C(=O)N[C@@H](CC(C)C)C(=O)N(C)[C@@H](CC(C)C)C(=O)N[C@H](CC(C)C)C(=O)N(C)[C@@H](C)C(=O)N[C@@H](CC(C)C)C(=O)N2CCC[C@@H]2C(=O)O[C@@H]1C
0.23 | CC(=O)N1CCC[C@@H]1C(=O)N(C)[C@H](CC(C)C)C(=O)N[C@@H]1C(=O)N[C@@H](CC(C)C)C(=O)N[C@@H](CC(C)C)C(=O)N(C)[C@H](CC(C)C)C(=O)N[C@@H](C)C(=O)N[C@@H](CC(C)C)C(=O)N2CCC[C@H]2C(=O)O[C@@H]1C
4.6 | CC(=O)N1CCC[C@H]1C(=O)N(C)[C@@H](CC(C)C)C(=O)N[C@@H]1C(=O)N(C)[C@@H](CC(C)C)C(=O)N(C)[C@H](CC(C)C)C(=O)N(C)[C@@H](CC(C)C)C(=O)N[C@@H](C)C(=O)N[C@H](CC(C)C)C(=O)N2CCC[C@@H]2C(=O)O[C@@H]1C
4.4 | CC(=O)N1CCC[C@@H]1C(=O)N(C)[C@H](CC(C)C)C(=O)N[C@@H]1C(=O)N(C)[C@@H](CC(C)C)C(=O)N(C)[C@H](CC(C)C)C(=O)N(C)[C@@H](CC(C)C)C(=O)N(C)[C@@H](C)C(=O)N[C@@H](CC(C)C)C(=O)N2CCC[C@@H]2C(=O)O[C@@H]1C
0.79 | CC(=O)N1CCC[C@H]1C(=O)N(C)[C@@H](CC(C)C)C(=O)N[C@@H]1C(=O)N(C)[C@H](CC(C)C)C(=O)N[C@H](CC(C)C)C(=O)N[C@@H](CC(C)C)C(=O)N(C)[C@H](C)C(=O)N[C@@H](CC(C)C)C(=O)N2CCC[C@H]2C(=O)O[C@@H]1C
0.025 | CC(=O)N1CCC[C@@H]1C(=O)N(C)[C@H](CC(C)C)C(=O)N[C@@H]1C(=O)N[C@H](CC(C)C)C(=O)N[C@@H](CC(C)C)C(=O)N[C@H](CC(C)C)C(=O)N[C@@H](C)C(=O)N[C@H](CC(C)C)C(=O)N2CCC[C@@H]2C(=O)O[C@@H]1C
1.2 | CC(=O)N1CCC[C@H]1C(=O)N(C)[C@H](CC(C)C)C(=O)N[C@@H]1C(=O)N[C@H](CC(C)C)C(=O)N[C@@H](CC(C)C)C(=O)N[C@@H](CC(C)C)C(=O)N(C)[C@@H](C)C(=O)N[C@H](CC(C)C)C(=O)N2CCC[C@@H]2C(=O)O[C@@H]1C
0.05 | CC(=O)N[C@@H]1C(=O)N2CCC[C@H]2C(=O)N(C)[C@H](CC(C)C)C(=O)N[C@H](CC(C)C)C(=O)N[C@H](CC(C)C)C(=O)N[C@@H](CC(C)C)C(=O)N[C@@H](C)C(=O)N[C@@H](CC(C)C)C(=O)N2CCC[C@@H]2C(=O)O[C@@H]1C
2.5 | CC(=O)N1CCC[C@@H]1C(=O)N(C)[C@@H](CC(C)C)C(=O)N[C@@H]1C(=O)N[C@H](CC(C)C)C(=O)N[C@@H](CC(C)C)C(=O)N(C)[C@@H](CC(C)C)C(=O)N(C)[C@@H](C)C(=O)N[C@@H](CC(C)C)C(=O)N2CCC[C@H]2C(=O)O[C@@H]1C
2.4 | CC(=O)N1CCC[C@@H]1C(=O)N(C)[C@H](CC(C)C)C(=O)N[C@@H]1C(=O)N[C@H](CC(C)C)C(=O)N(C)[C@@H](CC(C)C)C(=O)N[C@@H](CC(C)C)C(=O)N(C)[C@H](C)C(=O)N[C@H](CC(C)C)C(=O)N2CCC[C@H]2C(=O)O[C@@H]1C

Extract of 2 entries:

structure (SMILES) | PAMPA (10^-6 cm/s)
CC(=O)N1CCC[C@@H]1C(=O)N(C)[C@H](CC(C)C)C(=O)N[C@@H]1C(=O)N[C@@H](CC(C)C)C(=O)N[C@@H](CC(C)C)C(=O)N(C)[C@H](CC(C)C)C(=O)N[C@@H](C)C(=O)N[C@@H](CC(C)C)C(=O)N2CCC[C@H]2C(=O)O[C@@H]1C | 0.23
CC(=O)N1CCC[C@H]1C(=O)N(C)[C@H](CC(C)C)C(=O)N[C@@H]1C(=O)N[C@H](CC(C)C)C(=O)N[C@@H](CC(C)C)C(=O)N[C@@H](CC(C)C)C(=O)N(C)[C@@H](C)C(=O)N[C@H](CC(C)C)C(=O)N2CCC[C@@H]2C(=O)O[C@@H]1C | 1.2